Data on one substance can be found in patent US20190240291A1.

Chains of the proteins cited; added tags and fusions are not shown. Residues count along the entry.
UniProt Q08351, 26-625: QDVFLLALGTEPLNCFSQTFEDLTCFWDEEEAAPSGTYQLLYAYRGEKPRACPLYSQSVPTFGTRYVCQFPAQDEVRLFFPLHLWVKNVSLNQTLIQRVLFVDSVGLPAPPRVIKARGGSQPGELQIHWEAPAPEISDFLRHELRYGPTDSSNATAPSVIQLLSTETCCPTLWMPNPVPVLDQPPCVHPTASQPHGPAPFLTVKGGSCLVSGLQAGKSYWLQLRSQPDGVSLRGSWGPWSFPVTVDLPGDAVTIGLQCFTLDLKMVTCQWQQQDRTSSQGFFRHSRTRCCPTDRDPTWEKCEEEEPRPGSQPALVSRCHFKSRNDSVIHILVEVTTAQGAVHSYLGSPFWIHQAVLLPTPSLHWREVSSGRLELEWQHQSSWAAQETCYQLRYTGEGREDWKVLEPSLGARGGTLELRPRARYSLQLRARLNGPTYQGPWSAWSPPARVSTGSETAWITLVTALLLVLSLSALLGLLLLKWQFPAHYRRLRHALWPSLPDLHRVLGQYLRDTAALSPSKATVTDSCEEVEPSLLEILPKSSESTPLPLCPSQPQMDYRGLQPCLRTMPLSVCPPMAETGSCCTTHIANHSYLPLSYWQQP

The target in the test is TPO receptor, c-mpl (mouse (C57BL/6 cells)) (UniProt Q08351). Nature of the test: cell-based or functional assay.

thrombopoietin (TPO) (ligand) gave a formation of mature OCs in vitro below 5 fold.
